Consider 30 molecules from patent publication US9464084B2, “P2X7 modulators” (Janssen Pharmaceutica NV, priority 2013, dated 2016).

Chains of the proteins cited; added tags and fusions are not shown. Lines headed by an entry give the natural chain unless they say otherwise; changes in a name come on top.
UniProt Q99572: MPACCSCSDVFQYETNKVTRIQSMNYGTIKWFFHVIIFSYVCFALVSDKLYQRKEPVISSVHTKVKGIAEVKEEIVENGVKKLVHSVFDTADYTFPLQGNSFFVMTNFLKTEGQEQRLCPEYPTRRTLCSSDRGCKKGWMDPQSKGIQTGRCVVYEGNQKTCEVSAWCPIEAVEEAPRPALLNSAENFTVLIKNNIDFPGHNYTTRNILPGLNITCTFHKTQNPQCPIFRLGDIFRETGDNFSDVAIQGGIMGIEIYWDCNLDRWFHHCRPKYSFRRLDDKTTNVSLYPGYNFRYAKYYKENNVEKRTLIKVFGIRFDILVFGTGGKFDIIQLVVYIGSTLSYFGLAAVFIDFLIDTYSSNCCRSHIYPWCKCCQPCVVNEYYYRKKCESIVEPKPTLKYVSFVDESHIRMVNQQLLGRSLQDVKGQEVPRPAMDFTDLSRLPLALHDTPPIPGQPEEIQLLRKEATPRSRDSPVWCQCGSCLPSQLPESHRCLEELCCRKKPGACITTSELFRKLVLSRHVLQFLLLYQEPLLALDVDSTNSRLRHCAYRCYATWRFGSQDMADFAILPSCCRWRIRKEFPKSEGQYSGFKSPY

Molecules are shown by their SMILES. pIC50, pKi: −log10 of the molar value.

One test has as its target T1, P2X7 (Homo sapiens (Human), UniProt Q99572). The experiment in a line: Radioligand binding, tritiated A-804598, human P2X7-1321N1 cell membranes.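 Further: ki obtained from the binding IC50 after correction for tracer concentration and tracer affinity.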 The following applies: 1 hour at 4° C.
Take `C[C@H]1c2ncn(-c3ncc(F)cn3)c2CCN1C(=O)c1cccc(C(F)(F)F)c1Cl` (single isomer, unassigned) [Example 194, (S*)-(2-Chloro-3-(trifluoromethyl)phenyl)(1-(5-fluoropyrimidin-2-yl)-4-methyl-6,7-dihydro-1H-imidazo[4,5-c]pyridin-5(4H)-yl)methanone]: the pKi (commonly −log10 of the Ki, conventionally taken in molar units) is 5.86. `Cn1nc2c(c1-c1cccnc1)CCN(C(=O)c1cccc(C(F)(F)F)c1Cl)C2` [Example 107, 6-{[2-Chloro-3-(trifluoromethyl)phenyl]carbonyl}-2-methyl-3-pyridin-3-yl-4,5,6,7-tetrahydro-2H-pyrazolo[3,4-c]pyridine]: the pKi is 7.10. Same read-out and setting: in the case of `Cc1ccnc(-n2nnc3c2CCN(C(=O)c2cccc(C(F)(F)F)c2F)C3C)n1` (centres unmarked) [Example 269, (2-fluoro-3-(trifluoromethyl)phenyl)(4-methyl-1-(4-methylpyrimidin-2-yl)-6,7-dihydro-1H-[1,2,3]triazolo[4,5-c]pyridin-5(4H)-yl)methanone] it was 7.70; in that of `O=C(c1cccc(C(F)(F)F)c1Cl)N1C=Cc2c(nnn2-c2cnccn2)C1c1ccccc1` (centres unmarked) [Example 76, 5-{[2-Chloro-3-(trifluoromethyl)phenyl]carbonyl}-4-phenyl-1-pyrazin-2-yl-4,5-dihydro-1H-[1,2,3]triazolo[4,5-c]pyridine], 6.44; in that of `Cn1nc2c(c1-c1ccc(F)cc1)CCN(C(=O)c1cccc(C(F)(F)F)c1Cl)C2` [Example 105, 6-{[2-Chloro-3-(trifluoromethyl)phenyl]carbonyl}-3-(4-fluorophenyl)-2-methyl-4,5,6,7-tetrahydro-2H-pyrazolo[3,4-c]pyridine], 6.70. As to `Cn1nc2c(c1-c1cccnc1)CCN(C(=O)c1cccc(Cl)c1Cl)C2` [Example 111, 6-[(2,3-Dichlorophenyl)carbonyl]-2-methyl-3-pyridin-3-yl-4,5,6,7-tetrahydro-2H-pyrazolo[3,4-c]pyridine], the pKi is 7.10. Still for that read-out and setting: for `CC1c2nnn(-c3ncccc3F)c2CCN1C(=O)c1cccc(C(F)(F)F)c1Cl` (centres unmarked) [Example 84, 5-{[2-Chloro-3-(trifluoromethyl)phenyl]carbonyl}-1-(3-fluoropyridin-2-yl)-4-methyl-4,5,6,7-tetrahydro-1H-[1,2,3]triazolo[4,5-c]pyridine] the value was 7.40; for `CCOc1cccnc1-n1nnc2c1CCN(C(=O)c1cccc(C(F)(F)F)c1Cl)[C@@H]2C` (single isomer, unassigned) [Example 316, (R*)-(2-chloro-3-(trifluoromethyl)phenyl)(1-(3-ethoxypyridin-2-yl)-4-methyl-6,7-dihydro-1H-[1,2,3]triazolo[4,5-c]pyridin-5(4H)-yl)methanone], 7.50. Same read-out and setting: in the case of `O=C(c1cccc(C(F)(F)F)c1Cl)N1CCc2c(ncn2-c2ccccn2)C1CF` (centres unmarked) [Example 32, (2-Chloro-3-(trifluoromethyl)phenyl)(4-(fluoromethyl)-1-(pyridin-2-yl)-6,7-dihydro-1H-imidazo[4,5-c]pyridin-5(4H)-yl)methanone] it was 7.43. On the same count and under the same terms, for `CC1c2ncn(-c3ncccn3)c2CCN1C(=O)c1cccc(C(F)(F)F)c1Cl` (centres unmarked) [Example 23, (2-Chloro-3-(trifluoromethyl)phenyl)(4-methyl-1-(pyrimidin-2-yl)-6,7-dihydro-1H-imidazo[4,5-c]pyridin-5(4H)-yl)methanone] the value was 7.40. In turn, `O=C(c1ccc(Cl)cc1Cl)N1CCc2c(nnn2-c2ncccn2)C1` [Example 257, (2,4-dichlorophenyl)(1-(pyrimidin-2-yl)-6,7-dihydro-1H-[1,2,3]triazolo[4,5-c]pyridin-5(4H)-yl)methanone] gave a pKi of 7.80. Still for that read-out and setting: in the case of `CCOC(=O)C1c2ncn(-c3ccccc3)c2CCN1C(=O)c1cccc(Cl)c1Cl` (centres unmarked) [Example 27, Ethyl 5-(2,3-dichlorobenzoyl)-1-phenyl-4,5,6,7-tetrahydro-1H-imidazo[4,5-c]pyridine-4-carboxylate] it was 5.86; in that of `CC1c2ncn(-c3ncc(F)cn3)c2CCN1C(=O)c1cccc(C(F)(F)F)c1Cl` (centres unmarked) [Example 22, (2-Chloro-3-(trifluoromethyl)phenyl)(1-(5-fluoropyrimidin-2-yl)-4-methyl-6,7-dihydro-1H-imidazo[4,5-c]pyridin-5(4H)-yl)methanone], 6.90; in that of `C[C@H]1c2nnn(-c3cnccn3)c2CCN1C(=O)c1ccc(F)c(Cl)c1Cl` (single isomer, unassigned) [Example 144, (S*)-(2,3-Dichloro-4-fluorophenyl)(4-methyl-1-(pyrazin-2-yl)-6,7-dihydro-1H-[1,2,3]triazolo[4,5-c]pyridin-5(4H)-yl)methanone], 8.49.

With `CCOc1cccnc1-n1nnc2c1CCN(C(=O)c1cccc(C(F)(F)F)c1Cl)C2C` (centres unmarked) [Example 258, (2-Chloro-3-(trifluoromethyl)phenyl)(1-(3-ethoxypyridin-2-yl)-4-methyl-6,7-dihydro-1H-[1,2,3]triazolo[4,5-c]pyridin-5(4H)-yl)methanone], the negative-log Ki (pKi) was 7.20.

Consider `O=C(c1cccc(C(F)(F)F)c1Cl)N1CCc2c(nnn2-c2ccccn2)C1` [Example 63, 5-{[2-Chloro-3-(trifluoromethyl)phenyl]carbonyl}-1-pyridin-2-yl-4,5,6,7-tetrahydro-1H-[1,2,3]triazolo[4,5-c]pyridine], for which the pKi is 7.93. On the same count and under the same terms, for `C[C@@H]1c2ncn(-c3ncc(F)cn3)c2CCN1C(=O)c1cccc(C(F)(F)F)c1Cl` (single isomer, unassigned) [Example 193, (R*)-(2-Chloro-3-(trifluoromethyl)phenyl)(1-(5-fluoropyrimidin-2-yl)-4-methyl-6,7-dihydro-1H-imidazo[4,5-c]pyridin-5(4H)-yl)methanone] the value was 7.65.

Another test concerns the target T1, P2X7. Put plainly: Ca2+ flux (FLIPR) in 1321N1 cells expressing recombinant human P2X7 channel.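 Further: Calcium-4 dye-loaded cells exposed to compound for 30 min before agonist addition, fluorescence change read 180 s after agonist.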 In kind it is cell-based. The settings on record: 250 μM BzATP.
Regarding `Cn1nc2c(c1-c1cccnc1)CCN(C(=O)c1cccc(C(F)(F)F)c1Cl)C2` [Example 107, 6-{[2-Chloro-3-(trifluoromethyl)phenyl]carbonyl}-2-methyl-3-pyridin-3-yl-4,5,6,7-tetrahydro-2H-pyrazolo[3,4-c]pyridine], the pIC50 (in general, −log10 of the IC50, conventionally taken in molar units) was 7.80.

Consider `Cc1c(C(=O)N2CCc3c(nnn3-c3ncccn3)[C@@H]2C)cccc1C(F)(F)F` (single isomer, unassigned) [Example 197, (S*)-(4-methyl-1-(pyrimidin-2-yl)-6,7-dihydro-1H-[1,2,3]triazolo[4,5-c]pyridin-5(4H)-yl)(2-methyl-3-(trifluoromethyl)phenyl)methanone], for which the negative logarithm of the IC50 (pIC50) is 6.18. The same measure, in the same setting: for `Cc1ccnc(-n2nnc3c2CCN(C(=O)c2cccc(C(F)(F)F)c2F)C3C)n1` (centres unmarked) [Example 269, (2-fluoro-3-(trifluoromethyl)phenyl)(4-methyl-1-(4-methylpyrimidin-2-yl)-6,7-dihydro-1H-[1,2,3]triazolo[4,5-c]pyridin-5(4H)-yl)methanone] the value was 7.88. Regarding `O=C(c1cccc(C(F)(F)F)c1Cl)N1C=Cc2c(nnn2-c2cnccn2)C1c1ccccc1` (centres unmarked) [Example 76, 5-{[2-Chloro-3-(trifluoromethyl)phenyl]carbonyl}-4-phenyl-1-pyrazin-2-yl-4,5-dihydro-1H-[1,2,3]triazolo[4,5-c]pyridine], the negative-log IC50 (pIC50) was 7.61. Still for that read-out and setting: for `CC1(C)c2ncn(-c3ccccc3)c2CCN1C(=O)c1cccc(C(F)(F)F)c1Cl` [Example 53, 5-{[2-Chloro-3-(trifluoromethyl)phenyl]carbonyl}-4,4-dimethyl-1-phenyl-4,5,6,7-tetrahydro-1H-imidazo[4,5-c]pyridine] the value was 6.01; for `Cn1nc2c(c1-c1cccnc1)CCN(C(=O)c1cccc(Cl)c1Cl)C2` [Example 111, 6-[(2,3-Dichlorophenyl)carbonyl]-2-methyl-3-pyridin-3-yl-4,5,6,7-tetrahydro-2H-pyrazolo[3,4-c]pyridine], 6.80. On the same count and under the same terms, in the case of `CC1c2nnn(-c3ncccc3F)c2CCN1C(=O)c1cccc(C(F)(F)F)c1Cl` (centres unmarked) [Example 84, 5-{[2-Chloro-3-(trifluoromethyl)phenyl]carbonyl}-1-(3-fluoropyridin-2-yl)-4-methyl-4,5,6,7-tetrahydro-1H-[1,2,3]triazolo[4,5-c]pyridine] it was 7.75. The same measure, in the same setting: in the case of `C[C@@H]1c2ncn(-c3ccc(F)cc3)c2CCN1C(=O)c1cccc(C(F)(F)F)c1Cl` (single isomer, unassigned) [Example 46, (4R*)-5-{[2-Chloro-3-(trifluoromethyl)phenyl]carbonyl}-1-(4-fluorophenyl)-4-methyl-4,5,6,7-tetrahydro-1H-imidazo[4,5-c]pyridine] it was 7.22. Turning to `Cc1nc(-n2nnc3c2CCN(C(=O)c2cccc(C(F)(F)F)c2Cl)C3C)ncc1F` (single isomer, unassigned) [Example 306, (S*)-(2-chloro-3-(trifluoromethyl)phenyl)(1-(5-fluoro-4-methylpyrimidin-2-yl)-4-methyl-6,7-dihydro-1H-[1,2,3]triazolo[4,5-c]pyridin-5(4H)-yl)methanone], the pIC50 is 5.16. On the same count and under the same terms, for `C[C@H]1Cc2c(nnn2-c2ncc(F)cn2)CN1C(=O)c1cc(C(F)(F)F)ccc1F` (single isomer, unassigned) [Example 232, (S*)-(2-fluoro-5-(trifluoromethyl)phenyl)(1-(5-fluoropyrimidin-2-yl)-6-methyl-6,7-dihydro-1H-[1,2,3]triazolo[4,5-c]pyridin-5(4H)-yl)methanone] the value was 5.25; for `CC1c2ncn(-c3ccc(F)cc3)c2CCN1C(=O)c1cccc(C(F)(F)F)c1Cl` (centres unmarked) [Example 18, (2-Chloro-3-(trifluoromethyl)phenyl)(1-(4-fluorophenyl)-4-methyl-6,7-dihydro-1H-imidazo[4,5-c]pyridin-5(4H)-yl)methanone], 7.11. On to `C[C@H]1c2ncn(-c3ccc(F)cc3)c2CCN1C(=O)c1cccc(C(F)(F)F)c1Cl` (single isomer, unassigned) [Example 47], for which the pIC50 is 6.83. Still for that read-out and setting: in the case of `O=C(c1cccc(Cl)c1Cl)N1CCc2c(-c3ccncc3)n[nH]c2C1` [Example 115, 6-[(2,3-Dichlorophenyl)carbonyl]-3-pyridin-4-yl-4,5,6,7-tetrahydro-2H-pyrazolo[3,4-c]pyridine] it was 5.97. The same measure, in the same setting: for `C[C@H]1c2ncn(-c3ccc(F)cn3)c2CCN1C(=O)c1cccc(C(F)(F)F)c1Cl` (stereo in doubt) [Example 41] the value was 5.79; for `C[C@H]1c2ncn(-c3ccccn3)c2CCN1C(=O)c1cccc(C(F)(F)F)c1F` (single isomer, unassigned) [Example 43, (4 S*)-5-{[2-Fluoro-3-(trifluoromethyl)phenyl]carbonyl}-4-methyl-1-pyridin-2-yl-4,5,6,7-tetrahydro-1H-imidazo[4,5-c]pyridine], 5.28. Same read-out and setting: for `C[C@@H]1c2nnn(-c3ccn(CCF)n3)c2CCN1C(=O)c1cccc(C(F)(F)F)c1Cl` (single isomer, unassigned) [Example 171, (R*)-(2-Chloro-3-(trifluoromethyl)phenyl)(1-(1-(2-fluoroethyl)-1H-pyrazol-3-yl)-4-methyl-6,7-dihydro-1H-[1,2,3]triazolo[4,5-c]pyridin-5(4H)-yl)methanone] the value was 5.69; for `C[C@@H]1c2ncn(-c3ccccn3)c2CCN1C(=O)c1cccc(Cl)c1Cl` (single isomer, unassigned) [Example 192, (R*)-(2,3-Dichlorophenyl)(4-methyl-1-(pyridin-2-yl)-6,7-dihydro-1H-imidazo[4,5-c]pyridin-5(4H)-yl)methanone], 5.60; for `Cc1cc(C)nc(-n2nnc3c2CCN(C(=O)c2cccc(Cl)c2Cl)C3C)n1` (centres unmarked) [Example 179, (2,3-dichlorophenyl)(1-(4,6-dimethylpyrimidin-2-yl)-4-methyl-6,7-dihydro-1H-[1,2,3]triazolo[4,5-c]pyridin-5(4H)-yl)methanone], 5.98.
